Data from PubChem BioAssay (EPA / NIEHS).
Only a part is listed here, and it is no random draw. Inconclusive results are not listed. The source made the active and inactive calls. Rule for the calls, unless noted: active = hit-call score of the fitted dose curve at least 0.9, where 1 is the maximum; inactive = score below 0.9.

Protein sequences, listed by entry. Tags and fused reporters are not part of them.
UniProt P40763, whole entry: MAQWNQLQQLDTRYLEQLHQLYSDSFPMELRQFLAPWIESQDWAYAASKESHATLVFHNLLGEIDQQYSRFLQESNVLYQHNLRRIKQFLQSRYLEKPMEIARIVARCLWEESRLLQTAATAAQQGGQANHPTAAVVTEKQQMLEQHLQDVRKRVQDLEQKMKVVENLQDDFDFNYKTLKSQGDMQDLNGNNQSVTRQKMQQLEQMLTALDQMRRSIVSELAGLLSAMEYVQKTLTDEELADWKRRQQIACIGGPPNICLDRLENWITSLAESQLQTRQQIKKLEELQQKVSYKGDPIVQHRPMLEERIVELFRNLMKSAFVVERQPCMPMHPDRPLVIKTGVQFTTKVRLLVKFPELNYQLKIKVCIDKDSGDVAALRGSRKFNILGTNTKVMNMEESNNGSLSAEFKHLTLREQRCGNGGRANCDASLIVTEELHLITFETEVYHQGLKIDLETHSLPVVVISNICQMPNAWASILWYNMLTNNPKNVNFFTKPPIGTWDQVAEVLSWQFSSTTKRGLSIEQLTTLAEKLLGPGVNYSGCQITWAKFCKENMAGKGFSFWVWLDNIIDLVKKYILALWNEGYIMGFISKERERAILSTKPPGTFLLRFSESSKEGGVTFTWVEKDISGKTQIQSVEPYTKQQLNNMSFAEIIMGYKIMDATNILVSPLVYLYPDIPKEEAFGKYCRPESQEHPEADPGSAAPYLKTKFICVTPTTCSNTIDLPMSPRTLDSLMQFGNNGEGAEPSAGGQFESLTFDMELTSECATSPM
UniProt P11474, whole entry: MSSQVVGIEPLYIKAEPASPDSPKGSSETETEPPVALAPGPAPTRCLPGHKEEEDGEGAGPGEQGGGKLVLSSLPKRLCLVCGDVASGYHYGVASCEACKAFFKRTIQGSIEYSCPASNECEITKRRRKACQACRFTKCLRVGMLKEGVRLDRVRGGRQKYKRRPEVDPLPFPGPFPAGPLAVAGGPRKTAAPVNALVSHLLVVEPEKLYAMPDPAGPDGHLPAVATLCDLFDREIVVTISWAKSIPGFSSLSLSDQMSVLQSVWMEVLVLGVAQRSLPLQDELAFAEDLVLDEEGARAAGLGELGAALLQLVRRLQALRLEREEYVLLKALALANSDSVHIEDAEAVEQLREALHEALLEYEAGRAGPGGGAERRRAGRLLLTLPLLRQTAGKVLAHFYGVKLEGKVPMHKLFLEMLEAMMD
UniProt P17861, whole entry: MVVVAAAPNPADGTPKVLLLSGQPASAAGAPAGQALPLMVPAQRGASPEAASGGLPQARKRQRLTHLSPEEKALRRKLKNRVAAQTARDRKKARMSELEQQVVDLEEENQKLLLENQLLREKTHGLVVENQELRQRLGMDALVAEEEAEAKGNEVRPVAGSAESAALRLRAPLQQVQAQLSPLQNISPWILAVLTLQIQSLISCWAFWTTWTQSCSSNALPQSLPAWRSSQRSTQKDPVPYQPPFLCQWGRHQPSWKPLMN
UniProt Q14994, whole entry: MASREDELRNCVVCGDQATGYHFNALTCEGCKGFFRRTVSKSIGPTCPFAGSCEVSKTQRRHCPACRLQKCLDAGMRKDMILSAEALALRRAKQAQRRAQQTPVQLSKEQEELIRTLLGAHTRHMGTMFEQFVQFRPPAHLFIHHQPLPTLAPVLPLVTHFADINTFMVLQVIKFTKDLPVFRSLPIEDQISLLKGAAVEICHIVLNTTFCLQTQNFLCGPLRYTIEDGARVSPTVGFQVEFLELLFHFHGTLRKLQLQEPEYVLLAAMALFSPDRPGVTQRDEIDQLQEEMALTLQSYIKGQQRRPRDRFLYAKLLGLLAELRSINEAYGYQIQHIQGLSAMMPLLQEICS
UniProt P10275, whole entry: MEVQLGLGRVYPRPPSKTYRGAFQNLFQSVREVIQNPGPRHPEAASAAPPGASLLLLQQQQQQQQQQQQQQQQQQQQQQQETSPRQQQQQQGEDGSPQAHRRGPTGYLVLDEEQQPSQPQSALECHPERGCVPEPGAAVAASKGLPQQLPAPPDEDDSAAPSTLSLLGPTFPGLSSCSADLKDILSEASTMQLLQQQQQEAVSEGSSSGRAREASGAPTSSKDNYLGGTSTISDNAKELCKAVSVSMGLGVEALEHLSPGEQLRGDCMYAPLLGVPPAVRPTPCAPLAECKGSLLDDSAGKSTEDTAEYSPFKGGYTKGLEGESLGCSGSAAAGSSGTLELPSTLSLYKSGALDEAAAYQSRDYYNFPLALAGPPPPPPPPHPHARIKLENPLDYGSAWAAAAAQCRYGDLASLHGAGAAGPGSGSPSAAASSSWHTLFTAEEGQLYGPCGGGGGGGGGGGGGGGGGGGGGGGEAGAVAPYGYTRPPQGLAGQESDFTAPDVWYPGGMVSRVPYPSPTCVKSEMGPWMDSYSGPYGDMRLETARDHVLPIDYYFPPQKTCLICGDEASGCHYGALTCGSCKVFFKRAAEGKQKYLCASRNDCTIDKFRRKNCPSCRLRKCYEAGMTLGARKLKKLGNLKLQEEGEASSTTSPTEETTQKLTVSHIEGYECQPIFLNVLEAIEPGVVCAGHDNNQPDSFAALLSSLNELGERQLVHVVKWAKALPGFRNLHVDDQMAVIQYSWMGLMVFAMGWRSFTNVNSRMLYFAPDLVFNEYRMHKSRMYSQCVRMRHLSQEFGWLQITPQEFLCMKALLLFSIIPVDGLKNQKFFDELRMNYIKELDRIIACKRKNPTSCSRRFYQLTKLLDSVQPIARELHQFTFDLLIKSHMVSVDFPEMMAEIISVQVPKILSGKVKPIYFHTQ
UniProt P03372, whole entry: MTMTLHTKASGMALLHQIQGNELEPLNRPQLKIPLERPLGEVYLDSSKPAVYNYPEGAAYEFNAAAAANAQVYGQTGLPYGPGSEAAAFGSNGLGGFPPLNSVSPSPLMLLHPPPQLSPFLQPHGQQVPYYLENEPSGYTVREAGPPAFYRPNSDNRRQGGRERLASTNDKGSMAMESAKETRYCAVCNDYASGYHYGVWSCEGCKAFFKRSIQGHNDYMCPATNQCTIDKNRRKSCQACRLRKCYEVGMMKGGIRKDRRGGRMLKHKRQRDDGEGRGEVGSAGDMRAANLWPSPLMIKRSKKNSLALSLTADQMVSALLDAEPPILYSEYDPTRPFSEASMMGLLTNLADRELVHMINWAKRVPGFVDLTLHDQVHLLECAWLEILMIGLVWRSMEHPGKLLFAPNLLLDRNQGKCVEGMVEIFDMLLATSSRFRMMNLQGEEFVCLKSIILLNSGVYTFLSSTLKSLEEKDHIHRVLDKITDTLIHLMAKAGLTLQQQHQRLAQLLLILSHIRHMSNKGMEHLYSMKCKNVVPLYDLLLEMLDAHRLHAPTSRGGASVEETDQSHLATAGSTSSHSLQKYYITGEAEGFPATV

Key:
[1] = molecular target: Signal transducer and activator of transcription 3 (Homo sapiens) (UniProt P40763); test: ATG_STAT3_CIS: Attagene CIS-FACTORIAL HepG2 Assay for human Signal Transducer and Activator of Transcription 3 (STAT3) (AID 2282963); details: HepG2, Attagene cis-factorial STAT3 reporter transcription; actives raise or lower the signal
Method in brief: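 Uses human liver HepG2 transiently carrying cis-regulated reporter transcription units. Following 24 h dosing, reporter mRNA induction was detected by RT-PCR and capillary electrophoresis, analysed bidirectionally versus DMSO.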

[2] = ATG_TA_CIS: Attagene CIS-FACTORIAL HepG2 Assay for human TA Basal Promoter (AID 2282964); details: HepG2 Attagene CIS-factorial TA basal promoter reporter; actives raise or lower the signal
Method in brief: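 Multiplexed mRNA reporter assay, HepG2, 24 h. Reporter cDNA amplified, 6-FAM primer-extended, HpaI-cut, CE-sized; DMSO = negative control and baseline.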

[3] = ATG_TCF_b_cat_CIS: Attagene CIS-FACTORIAL HepG2 Assay for human T-Cell-Factor with beta-catenin (TCF/b-cat) (AID 2282965); details: HepG2 TCF/beta-catenin cis-reporter transcription, actives raise or lower the signal
Method in brief: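 Using capillary electrophoresis as the read-out, labelled reporter cDNA fragments from transiently transfected HepG2 were sized and quantified. Exposure lasted 24 hours; activity in either direction was referenced to DMSO.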

[4] = ATG_TGFb_CIS: Attagene CIS-FACTORIAL HepG2 Assay for human Transforming Growth Factor (TGF) (AID 2282967); details: HepG2 Attagene CIS TGFb reporter, mRNA transcription; actives raise or lower the signal
Method in brief: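 Transcript-level reporter readout: HepG2 transfectants, 24 h exposure, RNA to cDNA, reporter-specific PCR, fluorescent primer extension, capillary sizing against ROX standards. Gain- or loss-of-signal relative to DMSO.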

[5] = ATG_VDRE_CIS: Attagene CIS-FACTORIAL HepG2 Assay for human Vitamin D Receptor Element (VDRE) (AID 2282968); details: HepG2 VDRE cis-reporter transcription, actives raise or lower the signal
Method in brief: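 Transfected HepG2 reporter cells, chemical treatment 24 h. RNA isolated, cDNA amplified with reporter-specific primers, products analysed by capillary electrophoresis. Endpoint fitted in both directions versus DMSO.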

[6] = molecular target: Steroid hormone receptor ERR1 (Homo sapiens) (UniProt P11474); test: ATG_ERRa_TRANS: Attagene TRANS-FACTORIAL HepG2 Assay for human Estrogen-Related Receptor alpha (ERRa) (AID 2282971; active = hit-call score of the fitted dose curve at least 0.9, where 1 is the maximum); details: HepG2 Attagene TRANS reporter, ERRa transactivation
Method in brief: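 Reporter transcripts from ERRa-Gal4 chimera activity measured in transiently transfected human HepG2 cells 24 hours after dosing, using RT-PCR with 6-FAM primer extension, HpaI digestion and capillary electrophoresis; DMSO is baseline.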

[7] = molecular target: X-box-binding protein 1 (Homo sapiens) (UniProt P17861); test: ATG_Xbp1_CIS: Attagene CIS-FACTORIAL HepG2 Assay for human X-box Binding Protein 1 (XBP1) (AID 2282972); details: HepG2 XBP1 cis-element reporter, Attagene multiplex; actives raise or lower the signal
Method in brief: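 Read-out: fluorescent reporter mRNA fragments resolved by capillary electrophoresis after RT-PCR. Human HepG2 liver cells carried transfected cis-promoter reporter units and were exposed to chemicals for 24 hours. Gain or loss of signal fitted relative to DMSO baseline.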

[8] = molecular target: Nuclear receptor subfamily 1 group I member 3 (Homo sapiens) (UniProt Q14994); test: ATG_CAR_TRANS: Attagene TRANS-FACTORIAL HepG2 Assay for human Constitutive Androstane Receptor (CAR) (AID 2282969; active = hit-call score of the fitted dose curve at least 0.9, where 1 is the maximum;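 note: activators raise reporter mRNA above DMSO so AC50 marks induction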); details: HepG2 Attagene TRANS-FACTORIAL CAR reporter
Method in brief: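 Steps: transient transfection of HepG2 with multiple GAL4-UAS reporter units; 24 h compound incubation; RNA isolation, RT-PCR, 6-FAM primer extension, HpaI digest; capillary electrophoresis. Gain-of-signal relative to DMSO negative control.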

[9] = molecular target: Androgen receptor (Homo sapiens) (UniProt P10275); test: ATG_AR_TRANS: Attagene TRANS-FACTORIAL HepG2 Assay for human Androgen Receptor (AR) (AID 2282973; active = hit-call score of the fitted dose curve at least 0.9, where 1 is the maximum); details: HepG2 Attagene TRANS-FACTORIAL AR reporter transcription
Method in brief: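 Transcriptional activity of an exogenous AR–Gal4 fusion read as GAL4-UAS reporter transcript levels in transfected human HepG2 cells after 24 h dosing. Detection via RT-PCR, 6-FAM labelling, HpaI digest and capillary electrophoresis; increase over DMSO baseline.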

[10] = molecular target: Estrogen receptor (Homo sapiens) (UniProt P03372); test: ATG_ERa_TRANS: Attagene TRANS-FACTORIAL HepG2 Assay for human Estrogen Receptor alpha (ERa) (AID 2282970; active = hit-call score of the fitted dose curve at least 0.9, where 1 is the maximum); details: HepG2 Attagene TRANS ERa GAL4 reporter, mRNA
Method in brief: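 Reporter transcripts were measured 24 h after dosing by RT-PCR with fluorescent primer extension and capillary electrophoresis. The system is transiently transfected HepG2 expressing exogenous NR-Gal4 chimeras driving GAL4-UAS reporters; DMSO is the baseline.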

SMILES | outcome [1] | outcome [2] | outcome [3] | outcome [4] | outcome [5] | outcome [6] | outcome [7] | outcome [8] | AC50 [7] | outcome [9] | outcome [10] | AC50 [10]
COP(C)(=O)OC | inactive | inactive | inactive | inactive | inactive | inactive | inactive |  |  |  |  | 
Cc1c([N+](=O)[O-])cccc1[N+](=O)[O-] | inactive | inactive | inactive | inactive | inactive |  | inactive |  |  |  |  | 
CN(C)CCCl | inactive | inactive | inactive | inactive | inactive |  | inactive |  |  |  |  | 
Cc1cccc([N+](=O)[O-])c1[N+](=O)[O-] | inactive | inactive | inactive | inactive | inactive |  |  | inactive | active: 117 µM | inactive |  | 
CC(C)OP(C)(=O)OC(C)C | inactive | inactive | inactive | inactive | inactive |  | inactive |  |  |  |  | 
CC(C)N(CCO)C(C)C | inactive | inactive | inactive | inactive | inactive | inactive | inactive |  |  |  |  | 
COc1ccc([N+](=O)[O-])cc1[N+](=O)[O-] | inactive | inactive | inactive | inactive | inactive |  | inactive | inactive |  |  | inactive | 
O=[N+]([O-])c1cccc([N+](=O)[O-])c1 | inactive | inactive | inactive | inactive | inactive |  | inactive |  |  |  |  | 
Cc1ccc([N+](=O)[O-])c([N+](=O)[O-])c1 | inactive | inactive | inactive | inactive | inactive |  | inactive | inactive |  |  |  | 
N#CBr | inactive | inactive | inactive | inactive | inactive |  | inactive |  |  | inactive |  | 
O=[N+]([O-])OCC(CO[N+](=O)[O-])(CO[N+](=O)[O-])CO[N+](=O)[O-] | inactive | inactive | inactive | inactive | inactive |  | inactive | inactive |  | inactive |  | active: 100 µM
Cc1ccc([N+](=O)[O-])cc1[N+](=O)[O-] | inactive | inactive | inactive | inactive | inactive |  | inactive |  |  |  |  | 
